{"sequences": {"note": "Protein sequences, listed by entry. Tags and fused reporters are not part of them. Lines headed by an entry give the natural chain unless they say otherwise; changes in a name come on top.", "UniProt P41144": "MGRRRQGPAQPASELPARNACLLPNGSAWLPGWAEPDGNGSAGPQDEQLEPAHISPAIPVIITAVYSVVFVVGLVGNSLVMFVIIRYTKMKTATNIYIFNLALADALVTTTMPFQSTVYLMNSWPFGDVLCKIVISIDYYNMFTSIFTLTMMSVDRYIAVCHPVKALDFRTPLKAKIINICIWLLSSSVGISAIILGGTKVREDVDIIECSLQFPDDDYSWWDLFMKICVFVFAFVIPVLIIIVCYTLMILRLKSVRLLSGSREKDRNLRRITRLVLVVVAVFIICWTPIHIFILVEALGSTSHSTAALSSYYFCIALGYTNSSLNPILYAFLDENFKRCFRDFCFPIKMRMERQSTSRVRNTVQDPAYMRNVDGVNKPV", "UniProt P33533, whole entry": "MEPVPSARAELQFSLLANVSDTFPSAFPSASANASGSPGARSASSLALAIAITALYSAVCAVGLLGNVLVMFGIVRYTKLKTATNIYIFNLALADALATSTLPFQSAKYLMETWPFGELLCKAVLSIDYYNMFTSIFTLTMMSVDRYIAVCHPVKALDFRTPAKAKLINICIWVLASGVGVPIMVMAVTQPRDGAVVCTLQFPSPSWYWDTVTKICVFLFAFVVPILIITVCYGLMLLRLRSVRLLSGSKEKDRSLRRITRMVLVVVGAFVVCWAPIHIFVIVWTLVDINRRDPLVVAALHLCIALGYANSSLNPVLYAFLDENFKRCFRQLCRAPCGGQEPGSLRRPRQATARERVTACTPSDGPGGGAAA"}, "source": "paper PMC7589326", "about": "“Synthesis and Pharmacological Evaluation of Fluorinated Quinoxaline‐Based κ‐Opioid Receptor (KOR) Agonists Designed for PET Studies” (Chemmedchem, 2020)", "origin": "cited, not measured here", "key": {"[1]": {"target": "T1, KOR (Cavia porcellus, UniProt P41144)", "T1 construct": "The thawed guinea pig brain membrane preparation (about 100 μg of the protein) was incubated; tissue Harlan-Winkelmann, Borchen, Germany; host or cells: guinea pig brain membrane homogenate", "conditions": "read-out: Ki±SEM KOR [3H]U-69,593; cited from earlier work"}, "[2]": {"target": "T2, DOR (Rattus norvegicus, UniProt P33533)", "T2 construct": "preparations from rat brain were employed in the DOR assay; tissue Harlan-Winkelmann, Borchen, Germany; host or cells: rat brain (Sprague Dawley) membrane homogenate", "conditions": "read-out: Ki DOR [3H]DPDPE; cited from earlier work"}}, "data": [{"smiles": "COC(=O)N1CCN(C(=O)Cc2ccc(Cl)c(Cl)c2)[C@@H]2[C@@H](N3CCCC3)CCC[C@@H]21", "note": "[1c]", "values": [{"measurement": "Ki", "setting": "[1]", "result": "0.0013 ± 0.0004", "unit": "µM"}, {"measurement": "Ki", "setting": "[2]", "result": 0.25, "unit": "µM"}]}]}
